By UniProt entry, the sequences of proteins in these tests, tags left out. Chains listed by the source or under a name are the forms on record and can include a tag or linker. Residues count along the entry.
UniProt Q07343, other isoform, or with tags, fused parts or gaps: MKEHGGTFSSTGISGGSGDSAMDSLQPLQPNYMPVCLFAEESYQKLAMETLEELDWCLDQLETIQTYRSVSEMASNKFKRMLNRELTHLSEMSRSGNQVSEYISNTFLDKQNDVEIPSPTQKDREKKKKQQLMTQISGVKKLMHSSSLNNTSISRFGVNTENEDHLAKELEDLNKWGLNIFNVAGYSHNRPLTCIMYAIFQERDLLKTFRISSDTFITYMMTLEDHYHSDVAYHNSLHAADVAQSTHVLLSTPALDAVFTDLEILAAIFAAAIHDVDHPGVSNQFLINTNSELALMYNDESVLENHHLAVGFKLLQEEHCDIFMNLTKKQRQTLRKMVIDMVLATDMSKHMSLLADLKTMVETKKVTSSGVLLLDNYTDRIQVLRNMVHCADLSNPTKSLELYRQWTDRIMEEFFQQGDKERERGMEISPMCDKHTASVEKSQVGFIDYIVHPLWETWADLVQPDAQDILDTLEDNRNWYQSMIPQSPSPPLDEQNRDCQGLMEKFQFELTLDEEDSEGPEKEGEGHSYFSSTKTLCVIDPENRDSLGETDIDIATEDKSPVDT
UniProt Q08499, 303-809, stated change not applied: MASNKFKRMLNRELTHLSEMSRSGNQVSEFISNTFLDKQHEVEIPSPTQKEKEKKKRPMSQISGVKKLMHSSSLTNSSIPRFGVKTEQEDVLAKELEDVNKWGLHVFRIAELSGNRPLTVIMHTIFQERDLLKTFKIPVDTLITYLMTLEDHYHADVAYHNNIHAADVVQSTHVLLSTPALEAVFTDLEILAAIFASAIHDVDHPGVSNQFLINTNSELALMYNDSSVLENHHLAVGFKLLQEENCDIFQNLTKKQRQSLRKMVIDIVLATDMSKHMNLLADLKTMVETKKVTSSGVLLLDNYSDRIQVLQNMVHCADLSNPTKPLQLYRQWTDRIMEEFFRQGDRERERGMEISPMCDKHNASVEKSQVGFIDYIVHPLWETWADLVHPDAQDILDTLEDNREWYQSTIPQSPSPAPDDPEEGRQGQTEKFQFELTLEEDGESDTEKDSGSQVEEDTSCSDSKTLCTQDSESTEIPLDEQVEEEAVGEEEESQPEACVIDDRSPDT

According to US20250263426A1, “PDE4B INHIBITOR AND USE THEREOF” (Xizang Haisco Pharmaceutical Co., Ltd., priority 2022, published 2025):

Tests used:
PDE4B2 = PDE4B2 (Homo sapiens (Human), UniProt Q07343); assay: Effect of compounds on PDE4B2 activity (fluorescence polarization kit); conditions: read-out: PDE4B2 IC50
PDE4D2 = PDE4D2 (Homo sapiens (Human), UniProt Q08499); assay: Effect of compounds on PDE4D2 activity (fluorescence polarization kit); format: biochemical
Method: FP was usually represented by mP value.
[formula] • I∥ (S520): fluorescence intensity in parallel direction • I⊥ (P520): fluorescence intensity in perpendicular direction • G: G factor=1
[formula] • mP(sample): mP of the test compound in a reaction well • mP(negative control): mP in the negative control well • mP(positive control): mP in the positive control well
According to the calculated inhibition rate at each concentration, the IC50 value of each compound was calculated by GraphPad Prism 8 software.

## CC#Cc1cnc(C2=CCN(c3nc4c(c(NC5(COC(F)F)CCC5)n3)[S@@+]([O-])CC4)CC2)nc1 [Compound 92-2]
PDE4B2
  IC50: < 0.01 µM

## CC#Cc1cnc(C2=CCN(c3nc4c(c(NC(C)(C)COC(N)=O)n3)[S+]([O-])CC4)CC2)nc1 (single isomer, unassigned) [Compound 110-2]
PDE4D2
  IC50: 0.01 to 0.05 µM
PDE4B2
  IC50: < 0.01 µM

## NC(=O)OCC1(Nc2nc(N3CC=C(c4ncc(C5CC5)cn4)CC3)nc3c2[S@+]([O-])CC3)CCC1 [Compound 47]
PDE4B2
  IC50: < 0.01 µM

## CC#Cc1cnc(C2=CCN(c3nc4c(c(NC(C)(C)COC(N)=O)n3)[S+]([O-])CC4)CC2)nc1 (single isomer, unassigned) [Compound 110-1]
PDE4D2
  IC50: < 0.01 µM
PDE4B2
  IC50: < 0.01 µM

## CC(C)(COC(N)=O)Nc1nc(N2CCC=C(c3ncc(Cl)cn3)CC2)nc2c1[S@@+]([O-])CC2 [Compound 102-2]
PDE4D2
  IC50: < 0.01 µM
PDE4B2
  IC50: < 0.01 µM

## CC(C)(COC(N)=O)Nc1nc(N2CCC=C(c3ncc(Cl)cn3)CC2)nc2c1[S@+]([O-])CC2 [Compound 102-1]
PDE4D2
  IC50: 0.05 to 0.1 µM
PDE4B2
  IC50: 0.01 to 0.05 µM

## CC#Cc1cnc(C2=CCN(c3nc4c(c(NC5(COC(F)F)CCC5)n3)[S@+]([O-])CC4)CC2)nc1 [Compound 92-1]
PDE4B2
  IC50: < 0.01 µM
